System: B16 cells transduced with AAV8-ISREx4-LucmiR122T
Experiment: Radiation and IFN signaling on activation of the ISREx4 promoter (luciferase)
Assay type: cell-based, murine
Protocol: The ISREx4 promoter responds to interferon downstream signaling. The following experiment investigates whether exogenously added IFN-α, IFN-β or IFN-γ activates the promoter and whether this addition has a synergistic effect with radiation of cells treated with AAV8-ISREx4-LucmiR122T.
To this end, B16 cells received 8 Gy or 0 Gy as described above and then were transduced with AAV8-ISREx4-LucmiR122T (1×10^5 viral genomes/cell) and 48 h later 1,000 IU of either IFN-α, IFN-β or IFN-γ were added to the culture and luciferase activity was measured 48 h later as described above.

B1: IFN-β: exogenously added interferon, 1,000 IU (protein, UniProt P01574 22-187, looked up)
Interferon beta: MSYNLLGFLQRSSNFQCQKLLWQLNGRLEYCLKDRMNFDIPEEIKQLQQFQKEDAALTIYEMLQNIFAIFRQDSSSTGWNETIVENLLANVYHQINHLKTVLEEKLEKEDFTRGKLMSSLHLKRYYGRILHYLKAKEYSHCAWTIVRVEILRNFYFINRLTGYLRN
B1 was tested, and the luciferase activity (1,000 IU interferon alone (0 Gy)) was “significantly increased luciferase activity” and the luciferase activity (1,000 IU interferon together with radiation (8 Gy)) was “induced luciferase activity dramatically”.

Source: patent US20250186623A1, “EXPRESSION SYSTEM FOR THE TREATMENT OF CANCER” (FUNDACION PARA LA INVESTIGACION MEDICA APLICADA, priority 2022, published 2025)
